This is an account of results in PMC11851449, “Blm10-Based Compounds Add to the Knowledge of How Allosteric Modulators Influence Human 20S Proteasome” (ACS Chemical Biology, 2025).

For data set [1], the system named is T1, human 20S proteasome.
T1 construct: 20S proteasome was isolated from human erythrocytes; from tissue; host or cells: human erythrocytes
The data set is described as follows: Susceptibility of modulators to digestion by h20S, HPLC. The data set is classed as in vitro ADME. Conditions: incubation with h20S for 1 or 3 hours. The text has this:
Analyzing by HPLC the stability of the modulators in the presence of h20S proteasome, we also excluded the possibility that the lower stimulating capacity is due to increased competition with the substrate. If the action of the modulators was based solely on competition, the compounds degraded to a greater extent would impede the access of a fluorogenic substrate to the proteolytic site, resulting in diminished fluorescence. The effect that we observed, however, was exactly the opposite. […] This provides indirect evidence for an allosteric mechanism of action of Blm peptides, analogous to that of the 19S or PA200 activators. This action probably loosens the conformation of the gate leading to the catalytic channel, increasing the dynamics of its alternation between the closed and open states, thereby allowing the entry and degradation of both substrates and modulators.
Figure S9. A. Susceptibility of modulators to be substrates of the human 20S proteasome,
assessed using HPLC. Percentage of the undigested modulator was calculated based on the
area under the peak corresponding to the modulator. B. Example chromatograms recorded for
peptides alone (red) and peptides after incubation with h20S for 1 (green) or 3 hours (blue). […]

For data set [2], the target named is T1, human 20S proteasome. The data set is described as follows: ChT-L peptidase activity of latent h20S probed with Suc-LLVY-AMC. The class given is biochemical. Conditions: concentration giving 50% of maximal activation; latent h20S 2.8 nM, substrate 100 μM, Tris/HCl pH 8.0, 37 °C; at least three independent experiments. As to the method:
(§1) The capacity of influencing the human 20S proteasome was examined using the latent enzyme isolated from human erythrocytes. Boc-LRR-AMC, Z-LLE-AMC, and Suc-LLVY-AMC fluorogenic substrates (Enzo Life Sciences Inc.) were used for assessment of the trypsin-, caspase-, and chymotrypsin-like activities, respectively. As an additional probe, we utilized a homemade FRET-type substrate DabEDS (Lys(Dabcyl)-[…]EDANS)-Gly[36]). Stock solutions of the substrates and modulators were prepared in dimethyl sulfoxide (DMSO). […] The activity assays were performed in a 96-well plate format in 50 mM Tris/HCl, pH 8.0. The CP was used at a final concentration of 0.002 mg mL^–1 (2.8 nM). The final concentrations of LLVY, LRR, and LLE substrates were 100 μM and DabEDS 15 μM. The concentration of reagents in the tests with inhibitors was as follows: 10 μM bortezomib (tebu-bio), 50 μM leupeptin (Roth), and 10 μM activators. The release of the aminomethylcoumarin (AMC) reporter group was followed by monitoring the fluorescence emission at 460 nm (λex was 380 nm). DabEDS hydrolysis was detected by measuring the emission at 493 nm, while the excitation wavelength was set at 335 nm. Fluorescence measurements were carried out using an Infinite M200 Pro plate reader (Tecan), every 2 min for up to 60 min at 37 °C. All activity assays were performed in at least three independent replicates.

The target of data set [3] is T1, human 20S proteasome. The data set is described as follows: Degradation of FRET-type polypeptide substrate DabEDS by h20S. Conditions: concentration giving 50% of maximal activation; latent h20S 2.8 nM, DabEDS 15 μM, Tris/HCl pH 8.0, 37 °C; at least three independent experiments. The data set is classed as biochemical. As to the method:
as §1

For data set [4], the target named is human 20S proteasome (human) (UniProt P60900).
Data set [5] has the same target. This is another data set of the same source.

Entries after “also recorded” stand apart in the source; their conditions may differ.

Broadly, the EC50 is the concentration giving half of the maximal effect.

Regarding `CC(C)C[C@H](NC(=O)[C@@H]1CCCN1C(=O)[C@H](CCCCN)NC(=O)[C@H](CCC(N)=O)NC(=O)[C@@H](NC(=O)[C@H](Cc1ccccc1)NC(=O)[C@@H](N)CCCCN)[C@@H](C)O)C(=O)N[C@@H](Cc1c[nH]c2ccccc12)C(=O)N[C@@H](CCCNC(=N)N)C(=O)N[C@@H](CO)C(=O)N[C@@H](Cc1ccc(O)cc1)C(=O)N[C@@H](Cc1ccc(O)cc1)C(=O)N[C@@H](C)C(=O)O` [Compound 2], the “stability of modulator in the presence of h20S (undigested modulator by HPLC peak area)” value (“stability of modulator” for short) in data set [1] is reported as “digested the most rapidly”.
On the same count and under the same terms, then `C[C@@H](O)[C@H](NC(=O)[C@H](Cc1ccccc1)NC(=O)[C@H](Cc1ccc(O)cc1)NC(=O)[C@@H](N)CCCCN)C(=O)NCC(=O)N[C@@H](CO)C(=O)N[C@@H](CCCCN)C(=O)N[C@@H](CC(=O)O)C(=O)N[C@@H](Cc1ccc(O)cc1)C(=O)N[C@@H](CCCNC(=N)N)C(=O)N[C@@H](CCCNC(=N)N)C(=O)N[C@@H](Cc1ccc(O)cc1)C(=O)N[C@@H](Cc1ccc(O)cc1)C(=O)N[C@@H](CO)C(=O)O` [Compound 14], with “digested the most rapidly”.
For `C[C@@H](O)[C@H](NC(=O)[C@H](Cc1ccc(O)cc1)NC(=O)[C@H](Cc1ccc(O)cc1)NC(=O)[C@H](CO)NC(=O)[C@H](CCCNC(=N)N)NC(=O)[C@H](Cc1c[nH]c2ccccc12)NC(=O)[C@H](CCC(=O)O)NC(=O)[C@H](CCCCN)NC(=O)[C@H](CO)NC(=O)CNC(=O)[C@@H](NC(=O)[C@H](Cc1ccccc1)NC(=O)[C@H](Cc1ccc(O)cc1)NC(=O)[C@@H](N)CCCCN)[C@@H](C)O)C(=O)O` [Compound 17], the values for the EC50 in data set [2] and in data set [3] were 3.52 ± 0.28 µM and 3.21 ± 0.78 µM, respectively. Also, in data set [1], the “stability of modulator” value is “digested the most rapidly”.
In the same order, the values of `C[C@@H](O)[C@H](NC(=O)[C@H](Cc1ccccc1)NC(=O)[C@H](Cc1ccc(O)cc1)NC(=O)[C@@H](N)CCCCN)C(=O)NCC(=O)N[C@@H](CO)C(=O)N[C@@H](CCCCN)C(=O)N[C@@H](CC(=O)O)C(=O)N[C@@H](Cc1c[nH]c2ccccc12)C(=O)N[C@@H](CCCNC(=N)N)C(=O)N[C@@H](CO)C(=O)N[C@@H](Cc1ccc(O)cc1)C(=O)N[C@@H](Cc1ccc(O)cc1)C(=O)N[C@@H](CO)C(=O)O` [Compound 18] are 3.49 ± 0.36 µM, 2.64 ± 0.6 µM and “strong degradation; also recorded: digested the most rapidly”.
With `C[C@@H](O)[C@H](NC(=O)[C@H](Cc1ccccc1)NC(=O)[C@H](Cc1ccc(O)cc1)NC(=O)[C@@H](N)CCCCN)C(=O)NCC(=O)N[C@@H](CO)C(=O)N[C@@H](CCCCN)C(=O)N[C@@H](CC(=O)O)C(=O)N[C@@H](Cc1c[nH]c2ccccc12)C(=O)N[C@@H](CCCNC(=N)N)C(=O)N[C@@H](CO)C(=O)N[C@@H](Cc1ccc(O)cc1)C(=O)N[C@@H](CC(=O)O)C(=O)N[C@@H](CO)C(=O)O` [Compound 19], in data set [1], the “stability of modulator” value is “not a substrate of the proteasome; also recorded: resistant to proteolytic degradation”.
As to compound 17 (Blm-pep analog) (peptide), the EC50 of stimulation of Suc-LLVY-AMC degradation (ChT-L peptidase) by isolated latent h20S in data set [4] turned out to be 3.52 µM. In data set [5], the EC50 of stimulation of degradation of the FRET-type substrate DabEDS by isolated latent h20S stood at 3.21 µM.
The like results for compound 18 (Blm-pep analog) (peptide) were, in that order, 3.49 µM and 2.64 µM.
